Assay results from patent US20190051326A1, “Ionic Liquid, Lubricant, and Magnetic Recording Medium” (priority 2016, published 2019).

Tests used:
[1] = Solubility to solvents (Vertrel XF, n-hexane, ethanol); conditions: 25° C., visual observation after 1 day; for Solubility Fluorine-based solvent: Vertrel XF, 0.2 parts by mass per 100 parts; for Solubility Ethanol / Solubility n-Hexane: 0.5 parts by mass per 100 parts
[2] = Solubility to fluorine-based solvent (Vertrel XF), 1.0/0.5/0.1 parts by mass added; conditions: Vertrel XF [CF3(CHF)2CF2CF3], 25° C., ultrasonic waves 5 minutes, left 1 day, visual observation; 0.5 and 0.1 parts by mass per 100 parts

Substance	Solubility Fluorine-based solvent [1]	Solubility Ethanol [1]	Solubility n-Hexane [1]	Fluorine-based solvent solubility [2]
nonafluorobutanesulfonic acid-N,N,N-trimethyloctadecylammonium [Comparative Example 9A, reference compound]	Less than 0.2% by mass	≥ 0.5% by mass	< 0.5% by mass	
nonafluorobutanesulfonic acid-1-octadecyl-2-heptadecylimidazolium [Comparative Example 6A]	Less than 0.2% by mass	≥ 0.5% by mass	< 0.5% by mass	
nonafluorobutanesulfonic acid-1-octadecylimidazolium [Comparative Example 1A]				Less than 0.1% by % by mass
